The values that follow come from US20250122207A1, “AP2 ASSOCIATED KINASE 1 INHIBITORS AND USES THEREOF” (Satellos Bioscience Inc., priority 2023, published 2025).

Amino acid sequences for entries named in this document (tags omitted). Residues count along the entry.
UniProt Q9NSY1, 38-345 K320A/K321A: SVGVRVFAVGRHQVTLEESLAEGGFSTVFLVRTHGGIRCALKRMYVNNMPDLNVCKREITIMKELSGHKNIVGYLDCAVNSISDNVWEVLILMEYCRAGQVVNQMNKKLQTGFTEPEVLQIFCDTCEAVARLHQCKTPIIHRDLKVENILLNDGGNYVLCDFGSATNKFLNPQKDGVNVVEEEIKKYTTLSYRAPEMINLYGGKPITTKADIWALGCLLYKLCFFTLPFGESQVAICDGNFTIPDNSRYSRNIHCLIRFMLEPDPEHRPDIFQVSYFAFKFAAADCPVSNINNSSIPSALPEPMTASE

The test concerns the target T1, BIKE (amino acids S38-E345) (K320A, K321A) (Homo sapiens, UniProt Q9NSY1, K320A/K321A).
T1 construct: against BIKE (amino acids S38-E345) (K320A, K321A); 6His (N, cleaved yes)
As to the kind of experiment: BIKE pSENs assay. The test is classed as biochemical. As to the method:
The recombinant proteins were independently expressed in Escherichia coli BL21(DE3) cells cultured in Luria-Bertani (LB) medium until OD600 reached 0.6-0.8, then cooled to 15° C. and supplemented with 0.5 mM isopropyl 1-thio-D-galactopyranoside (IPTG) induce protein expression 16 h. Cells were harvested and resuspended in lysis buffer (50 mM HEPES pH 7.5, 500 mM NaCl, 5 mM imidazole, 5% glycerol, 0.5 mM Tris (2-carboxyethyl) phosphine (TCEP), cOmplete Protease Inhibitor Tablet (Roche)) and lysed by microfludics high pressure homogenizer (UH-06, Union-Biotech). Proteins were purified using […] chromatography (His FF column, Bestchrom) and eluted stepwise in binding buffer with 20-300 mM imidazole. Removal of the hexahistidine tag was performed at 4° C. overnight using recombinant TEV protease and reacted with BirA to obtain the corresponding biotinylated-AAK1, BIKE or GAK proteins. Further separated in the reverse Strep column (Strep-Tactin® XT, IBA). The Biotin elution sample was collected containing untagged biotinylated protein was then purified by Ion-exchange chromatography (Mono Q 10/100 GL, Cytiva) and Size-exclusion chromatography (HiLoad 16/600 Superdex 200 pg, Cytiva). The pure protein was stored in a storage buffer 50 mM HEPES (pH 7.5), 300 mM NaCl, 5% glycerol at −80° C. Protein were characterized by SDS-PAGE, LC-MS and aSEC.
BIKE protein was dissolved at 20 nM in 1× enzyme solution (50 mM HEPES pH7.5, 10 mM MgCl2, 1 mM DTT, 1% glycerol, 0.5 mM EGTA, 0.01% Briji35, 0.02% BSA) and 12.5 ul was incubated with 250 nl DMSO or 250 nl compound in DMSO at 25° C. for 15 min. The reaction was started by addition of 12.5 ul of 30 uM AQT0759 (Assayquant, CSKS-AQT0759B) and 40 uM ATP which were diluted in 1× substrate dilution buffer (50 mM HEPES pH7.5, 10 mM MgCl2, 1 mM DTT, 1% glycerol, 0.5 mM EGTA, 0.01% Briji35).

Setting [1] is: class symbols, read-out: BIKE pSENs: IC50.

Read-outs that look alike come from different tables or passages of the source.

The IC50 is the concentration at which inhibition is half-maximal. On to `CN1C[C@@H](OC(=O)N2CCN(c3ccn4ncc(Br)c4n3)CC2)CC1=O` [Compound I-95, [(3S)-1-methyl-5-oxo-pyrrolidin-3-yl]4-(3-bromopyrazolo[1,5-a]pyrimidin-5-yl)piperazine-1-carboxylate], for which, under setting [1], the IC50 is greater than 1500 nM.

Compound `c1cnc(OC2CC2)c(-c2cnn3ccc(N4CCNCC4)nc23)c1` [Compound I-107, 3-[2-(cyclopropoxy)-3-pyridyl]-5-piperazin-1-yl-pyrazolo[1,5-a]pyrimidine] yielded an IC50 greater than 1500 nM.

For the compound `COc1ncccc1-c1cnn2ccc(N3CCNCC3)nc12` [Compound I-102-2, 3-(2-methoxy-3-pyridyl)-5-piperazin-1-yl-pyrazolo[1,5-a]pyrimidine], the IC50 was greater than 1500 nM.

Take `NC(=O)CN1C[C@@H](OC(=O)N2CCN(c3ccn4ncc(-c5cccnc5OC5CC5)c4n3)CC2)CC1=O` [Compound I-28, [(3S)-1-(2-Amino-2-oxo-ethyl)-5-oxo-pyrrolidin-3-yl]4-[3-[2-(cyclopropoxy)-3-pyridyl]pyrazolo[1,5-a]pyrimidin-5-yl]piperazine-1-carboxylate]: the IC50 under setting [1] was 51 to 150 nM.
